The numbers were not newly measured in patent US20090306944A1, “DEVICE AND METHOD FOR CALCULATING AND SUPPLYING A DRUG DOSE” (BAYER TECHNOLOGY SERVICES GMBH, priority 2006, published 2009), which cites them from elsewhere.

This is a selection: effects in other tests are not listed, and their absence says nothing.

The subject of one data set is CYP3A. To be noted: proportion of overall clearance, reference value in an adult.

With `CCC(=O)N(c1ccccc1)C1(COC)CCN(CCn2nnn(CC)c2=O)CC1`, the “main binding protein in the plasma” value (adult) is “α1-Glycoprotein”. Besides, the “Free fraction in the plasma” value (reference value in an adult) is 10%. Further, the “Excretion process: CYP3A” value with CYP3A was “CYP3A (100%)”.
